Drawing on article PMC11748620, “Evaluation of maSSS/maSES-PEG2-RM26 for their potential therapeutic use after labeling with Re-188. Could their [^99mTc]Tc-labeled counterparts be used to estimate dosimetry?” (EJNMMI Radiopharmacy and Chemistry, 2025), this text covers IC50 for one substance.

Protein sequences, listed by entry. Tags and fused reporters are not part of them. Lines headed by an entry give the natural chain unless they say otherwise; changes in a name come on top.
UniProt P30550: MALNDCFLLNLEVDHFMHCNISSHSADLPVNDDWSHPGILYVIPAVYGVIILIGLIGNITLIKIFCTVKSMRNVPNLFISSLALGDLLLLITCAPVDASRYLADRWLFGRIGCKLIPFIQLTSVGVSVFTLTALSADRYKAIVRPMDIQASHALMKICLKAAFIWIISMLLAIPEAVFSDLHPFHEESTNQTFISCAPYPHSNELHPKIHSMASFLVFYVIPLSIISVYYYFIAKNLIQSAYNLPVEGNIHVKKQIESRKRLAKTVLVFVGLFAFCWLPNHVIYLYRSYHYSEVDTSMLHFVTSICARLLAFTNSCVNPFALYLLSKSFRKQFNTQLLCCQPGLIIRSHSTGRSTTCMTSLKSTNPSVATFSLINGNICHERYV

In the assay the target is T1, GRPR (Homo sapiens, UniProt P30550).
T1 construct: host or cells: PC-3 cells
The experiment in a line: Competition binding against [^125I]I-Tyr^4-bombesin in living PC-3 cells. Conditions: radioligand [^125I]I-Tyr^4-BBN, 4 °C, 5 h, PBS 1% BSA. The method, then: For competition binding experiments live PC-3 cells were used. Using 12-well plates, 5 × 10^5 PC-3 cells were seeded in each well a day prior to the experiment. The day after, the supernatant was removed followed by washing of the cells with cold PBS (4 °C). Next 350 µL of PBS − 1% w/v bovine serum albumin (BSA) solution was added in the wells followed by 50 µl of the compound under investigation in the same buffer with increased concentrations (0 to 5000 nM). Finally, 100 µl of [^125I]I-Tyr^4-BBN (100,000 cpm, 24.6 fmol) in PBS − 1% w/v PBS solution were added and the cells were left to incubate at 4 °C for 5 h. Following a wash with PBS (4 °C), cells were treated with trypsin – EDTA solution and collected. Sample radioactivity was determined with a gamma counter and data analysis and curve fitting were done using GraphPad Prism 7 and a nonlinear regression model.
The statistical significance of the difference between the IC50s for the three conjugates tested was determined by one-way ANOVA with Tuckey’s post hoc analysis using GraphPad Prism.

What is called IC50 is the concentration needed to halve the response being measured. Low values mean greater potency in that assay, high ones weaker potency in that assay.

In turn, “^natGa-NOTA-PEG2-RM26: ^natGa-loaded NOTA-PEG2-RM26 serving as an internal control” yielded an IC50 of 4.2 nM.
